Source: ChEMBL document CHEMBL5537133, “Rational design and optimization of novel 4-methyl quinazoline derivatives as PI3K/HDAC dual inhibitors with benzamide as zinc binding moiety for the treatment of acute myeloid leukemia” (Eur J Med Chem, 2024)
Active and inactive are the calls of the source. The rule behind the calls is not given here.

Chains of the proteins cited; added tags and fusions are not shown. Lines headed by an entry give the natural chain unless they say otherwise; changes in a name come on top.
UniProt Q13547: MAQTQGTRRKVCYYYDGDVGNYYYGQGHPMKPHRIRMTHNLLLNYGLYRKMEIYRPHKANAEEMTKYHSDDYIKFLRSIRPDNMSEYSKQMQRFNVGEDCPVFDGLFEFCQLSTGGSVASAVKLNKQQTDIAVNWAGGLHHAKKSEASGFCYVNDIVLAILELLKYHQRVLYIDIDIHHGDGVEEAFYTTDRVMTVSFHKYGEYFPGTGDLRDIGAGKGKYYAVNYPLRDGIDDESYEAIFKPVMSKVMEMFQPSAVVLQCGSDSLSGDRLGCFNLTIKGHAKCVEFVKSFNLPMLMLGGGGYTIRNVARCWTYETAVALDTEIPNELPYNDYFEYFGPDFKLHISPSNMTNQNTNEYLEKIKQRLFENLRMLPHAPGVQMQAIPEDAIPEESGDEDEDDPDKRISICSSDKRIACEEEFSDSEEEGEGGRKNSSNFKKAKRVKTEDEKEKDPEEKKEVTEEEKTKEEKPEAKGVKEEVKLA
UniProt O15379: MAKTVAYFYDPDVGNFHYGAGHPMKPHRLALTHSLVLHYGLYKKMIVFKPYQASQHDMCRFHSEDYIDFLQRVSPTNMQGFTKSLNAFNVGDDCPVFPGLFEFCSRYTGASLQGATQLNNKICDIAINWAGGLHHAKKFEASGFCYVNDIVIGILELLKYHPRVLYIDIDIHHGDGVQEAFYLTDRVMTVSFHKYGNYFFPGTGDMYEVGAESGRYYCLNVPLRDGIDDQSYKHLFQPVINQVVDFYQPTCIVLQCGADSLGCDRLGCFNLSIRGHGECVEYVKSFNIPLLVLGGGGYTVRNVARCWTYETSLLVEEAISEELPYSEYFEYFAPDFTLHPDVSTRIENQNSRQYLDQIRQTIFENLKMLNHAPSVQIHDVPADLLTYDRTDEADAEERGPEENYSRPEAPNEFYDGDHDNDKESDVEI
UniProt Q92769: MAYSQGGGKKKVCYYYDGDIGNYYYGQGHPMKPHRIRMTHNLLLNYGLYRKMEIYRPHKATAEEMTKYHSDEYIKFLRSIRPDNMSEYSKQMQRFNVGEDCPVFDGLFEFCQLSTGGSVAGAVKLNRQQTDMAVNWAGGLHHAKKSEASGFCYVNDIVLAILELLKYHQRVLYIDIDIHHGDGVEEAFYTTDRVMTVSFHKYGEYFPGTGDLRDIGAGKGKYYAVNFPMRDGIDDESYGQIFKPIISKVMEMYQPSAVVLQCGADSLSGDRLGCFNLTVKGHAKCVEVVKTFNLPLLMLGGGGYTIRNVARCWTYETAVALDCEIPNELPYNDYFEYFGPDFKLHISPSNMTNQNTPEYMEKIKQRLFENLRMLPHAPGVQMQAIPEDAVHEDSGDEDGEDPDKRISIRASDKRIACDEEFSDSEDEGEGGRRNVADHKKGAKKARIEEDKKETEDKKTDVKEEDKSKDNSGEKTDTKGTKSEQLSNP
UniProt Q8WUI4: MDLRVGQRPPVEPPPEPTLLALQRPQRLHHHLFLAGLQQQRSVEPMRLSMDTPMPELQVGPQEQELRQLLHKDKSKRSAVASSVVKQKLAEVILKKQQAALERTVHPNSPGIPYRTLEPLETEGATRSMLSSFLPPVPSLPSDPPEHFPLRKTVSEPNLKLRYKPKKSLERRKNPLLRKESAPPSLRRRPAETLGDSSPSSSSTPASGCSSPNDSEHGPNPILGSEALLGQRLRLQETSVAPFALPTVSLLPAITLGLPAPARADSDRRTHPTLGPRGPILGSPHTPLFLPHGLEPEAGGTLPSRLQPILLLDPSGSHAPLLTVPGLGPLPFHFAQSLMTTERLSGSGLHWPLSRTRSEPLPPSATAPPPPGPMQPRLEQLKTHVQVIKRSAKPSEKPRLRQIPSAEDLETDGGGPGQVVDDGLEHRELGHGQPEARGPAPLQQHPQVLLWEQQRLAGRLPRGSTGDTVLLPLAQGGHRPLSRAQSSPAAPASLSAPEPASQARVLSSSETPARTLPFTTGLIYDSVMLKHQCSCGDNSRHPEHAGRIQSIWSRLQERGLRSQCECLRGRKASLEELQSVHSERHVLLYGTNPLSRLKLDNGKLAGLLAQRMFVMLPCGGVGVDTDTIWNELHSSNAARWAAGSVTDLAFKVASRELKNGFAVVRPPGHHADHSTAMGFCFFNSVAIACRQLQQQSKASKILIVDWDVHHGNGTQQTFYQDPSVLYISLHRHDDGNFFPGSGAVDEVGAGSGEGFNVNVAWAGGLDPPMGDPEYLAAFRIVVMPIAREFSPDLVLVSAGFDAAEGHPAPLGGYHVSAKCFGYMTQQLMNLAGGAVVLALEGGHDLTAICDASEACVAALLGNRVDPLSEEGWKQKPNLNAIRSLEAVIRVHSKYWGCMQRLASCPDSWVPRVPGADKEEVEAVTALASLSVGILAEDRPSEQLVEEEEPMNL
UniProt Q9BY41: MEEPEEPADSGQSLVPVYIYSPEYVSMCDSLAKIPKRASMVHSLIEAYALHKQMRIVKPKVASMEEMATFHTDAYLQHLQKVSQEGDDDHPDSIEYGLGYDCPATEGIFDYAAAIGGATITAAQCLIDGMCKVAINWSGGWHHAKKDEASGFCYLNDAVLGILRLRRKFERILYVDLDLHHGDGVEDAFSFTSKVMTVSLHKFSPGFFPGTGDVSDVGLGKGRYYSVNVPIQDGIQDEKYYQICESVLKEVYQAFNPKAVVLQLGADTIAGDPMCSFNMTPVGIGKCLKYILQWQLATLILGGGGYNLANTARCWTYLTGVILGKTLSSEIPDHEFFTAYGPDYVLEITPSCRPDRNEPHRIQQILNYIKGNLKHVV
UniProt Q96DB2: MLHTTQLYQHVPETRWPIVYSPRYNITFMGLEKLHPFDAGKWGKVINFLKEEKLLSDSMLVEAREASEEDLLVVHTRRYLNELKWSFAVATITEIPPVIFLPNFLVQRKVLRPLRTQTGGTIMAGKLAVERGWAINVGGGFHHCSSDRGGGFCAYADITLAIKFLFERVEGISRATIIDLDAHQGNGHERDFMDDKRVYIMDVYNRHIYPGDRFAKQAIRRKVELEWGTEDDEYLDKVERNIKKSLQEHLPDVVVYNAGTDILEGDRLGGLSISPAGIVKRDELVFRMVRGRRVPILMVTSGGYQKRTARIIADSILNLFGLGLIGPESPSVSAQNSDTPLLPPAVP
UniProt P56524: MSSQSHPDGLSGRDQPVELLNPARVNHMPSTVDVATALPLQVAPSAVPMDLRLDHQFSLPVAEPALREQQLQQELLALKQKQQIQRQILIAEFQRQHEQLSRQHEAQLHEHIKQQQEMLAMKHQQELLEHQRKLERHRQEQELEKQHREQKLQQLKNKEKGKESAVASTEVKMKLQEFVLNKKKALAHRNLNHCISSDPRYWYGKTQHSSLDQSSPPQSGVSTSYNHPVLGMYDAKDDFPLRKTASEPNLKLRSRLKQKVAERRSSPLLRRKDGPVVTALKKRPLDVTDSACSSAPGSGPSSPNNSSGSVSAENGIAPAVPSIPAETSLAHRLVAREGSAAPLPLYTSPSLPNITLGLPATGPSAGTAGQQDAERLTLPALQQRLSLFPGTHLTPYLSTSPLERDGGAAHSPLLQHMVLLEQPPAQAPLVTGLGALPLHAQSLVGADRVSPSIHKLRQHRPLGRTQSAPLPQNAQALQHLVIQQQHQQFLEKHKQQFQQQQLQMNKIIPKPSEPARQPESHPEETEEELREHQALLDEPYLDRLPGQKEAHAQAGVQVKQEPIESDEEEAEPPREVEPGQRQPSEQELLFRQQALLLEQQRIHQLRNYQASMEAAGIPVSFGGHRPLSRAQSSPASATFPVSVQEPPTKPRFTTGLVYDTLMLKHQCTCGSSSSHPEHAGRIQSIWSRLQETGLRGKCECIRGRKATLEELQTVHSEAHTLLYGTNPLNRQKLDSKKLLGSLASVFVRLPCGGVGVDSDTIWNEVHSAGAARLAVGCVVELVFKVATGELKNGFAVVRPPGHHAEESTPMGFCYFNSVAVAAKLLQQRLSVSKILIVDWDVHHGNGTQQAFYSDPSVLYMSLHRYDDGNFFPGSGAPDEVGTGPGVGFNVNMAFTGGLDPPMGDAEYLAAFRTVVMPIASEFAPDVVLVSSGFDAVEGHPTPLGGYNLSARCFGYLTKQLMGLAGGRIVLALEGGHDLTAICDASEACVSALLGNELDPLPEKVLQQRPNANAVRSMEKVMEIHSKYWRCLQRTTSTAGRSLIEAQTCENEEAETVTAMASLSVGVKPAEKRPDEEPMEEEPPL
UniProt Q9UKV0: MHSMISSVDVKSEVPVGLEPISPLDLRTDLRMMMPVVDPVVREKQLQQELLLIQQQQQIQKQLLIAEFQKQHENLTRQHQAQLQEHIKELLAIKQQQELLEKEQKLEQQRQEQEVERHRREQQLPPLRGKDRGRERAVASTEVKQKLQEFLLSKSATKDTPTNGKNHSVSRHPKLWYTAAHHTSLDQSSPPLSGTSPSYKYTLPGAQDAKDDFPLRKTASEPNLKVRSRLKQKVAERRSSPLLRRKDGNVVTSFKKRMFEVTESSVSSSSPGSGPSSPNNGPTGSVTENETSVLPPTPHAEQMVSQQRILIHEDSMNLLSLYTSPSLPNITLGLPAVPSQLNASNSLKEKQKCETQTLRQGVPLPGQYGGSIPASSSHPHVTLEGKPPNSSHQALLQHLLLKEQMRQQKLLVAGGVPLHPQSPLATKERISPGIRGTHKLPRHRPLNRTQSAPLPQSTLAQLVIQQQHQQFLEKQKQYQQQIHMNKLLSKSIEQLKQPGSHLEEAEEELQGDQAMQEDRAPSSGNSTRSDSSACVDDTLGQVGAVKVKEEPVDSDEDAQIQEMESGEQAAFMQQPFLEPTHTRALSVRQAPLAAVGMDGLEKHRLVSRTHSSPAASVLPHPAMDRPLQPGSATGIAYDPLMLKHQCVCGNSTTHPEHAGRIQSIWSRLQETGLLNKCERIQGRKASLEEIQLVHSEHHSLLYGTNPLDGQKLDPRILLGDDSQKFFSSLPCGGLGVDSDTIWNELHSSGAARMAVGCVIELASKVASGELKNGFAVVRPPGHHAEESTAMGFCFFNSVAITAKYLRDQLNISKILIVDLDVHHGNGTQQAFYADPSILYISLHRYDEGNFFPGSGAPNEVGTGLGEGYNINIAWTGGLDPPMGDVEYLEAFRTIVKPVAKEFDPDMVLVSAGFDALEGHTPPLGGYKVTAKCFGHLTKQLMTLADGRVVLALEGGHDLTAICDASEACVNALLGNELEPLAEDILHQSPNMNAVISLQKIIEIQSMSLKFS
UniProt Q969S8: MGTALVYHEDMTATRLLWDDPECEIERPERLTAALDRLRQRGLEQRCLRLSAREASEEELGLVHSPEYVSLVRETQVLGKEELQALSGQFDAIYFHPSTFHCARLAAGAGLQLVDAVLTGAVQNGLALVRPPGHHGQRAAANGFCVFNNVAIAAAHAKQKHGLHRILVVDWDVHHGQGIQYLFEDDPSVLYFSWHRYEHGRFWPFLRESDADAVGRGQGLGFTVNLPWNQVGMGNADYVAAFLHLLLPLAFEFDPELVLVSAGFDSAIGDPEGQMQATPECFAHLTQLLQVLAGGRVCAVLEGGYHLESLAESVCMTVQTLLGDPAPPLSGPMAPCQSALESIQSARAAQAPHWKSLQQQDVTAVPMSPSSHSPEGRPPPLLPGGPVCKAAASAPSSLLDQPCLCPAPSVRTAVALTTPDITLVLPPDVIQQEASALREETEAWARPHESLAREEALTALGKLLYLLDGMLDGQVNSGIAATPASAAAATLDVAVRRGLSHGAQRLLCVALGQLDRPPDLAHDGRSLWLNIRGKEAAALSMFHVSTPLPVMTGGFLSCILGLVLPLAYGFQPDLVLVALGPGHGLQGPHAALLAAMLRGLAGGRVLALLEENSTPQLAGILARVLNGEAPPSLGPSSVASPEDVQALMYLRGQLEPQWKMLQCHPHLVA

Legend:
MV4-11 [1] = assay: Induction of cell cycle arrest in human MV4-11 cells assessed as accumulation of cell at S phase at 5 uM incubated for 24 hrs by FxCycle propidium iodide/RNase staining based flow cytometry analysis; format: functional
MV4-11 [2] = assay: Antitumor activity against human MV4-11 cells xenografted in BALB/c nude mouse assessed as increase in cleaved caspase-3 at 10 to 20 mg/kg, ip administered once daily for 14 days by Western blotting analysis; format: functional, organism-based; conditions: dose 10-20 mg/kg, time 14.0 day
[3] = target: T1, Histone deacetylase (Homo sapiens) (UniProt Q13547+O15379+Q9UBN7+Q92769+Q9UQL6+Q8WUI4+Q9BY41+Q96DB2+P56524+Q9UKV0+Q969S8); assay: Inhibition of HDAC in human MV4-11 cells assessed as decrease in p53 level incubated for 24 hrs by Western blotting analysis; format: cell-based; conditions: dose 0.04-5 µM
MV4-11 [4] = assay: Inhibition of PI3K in human MV4-11 cells assessed as decrease in AKT phosphorylation at T308 residue incubated for 24 hrs by Western blotting analysis; format: cell-based; conditions: dose 0.04-5 µM
MV4-11 [5] = assay: Inhibition of PI3K in human MV4-11 cells assessed as decrease in AKT phosphorylation at S473 residue incubated for 24 hrs by Western blotting analysis; format: cell-based; conditions: dose 0.04-5 µM
MV4-11 [6] = assay: Induction of cell cycle arrest in human MV4-11 cells assessed as accumulation of cell at G0/G1 phase incubated for 24 hrs by FxCycle propidium iodide/RNase staining based flow cytometry analysis; format: functional; conditions: dose 0.04-5 µM
[7] = target: Phosphatidylinositol 4,5-bisphosphate 3-kinase catalytic subunit gamma isoform (Homo sapiens, UniProt P48736); assay: Inhibition of PIK3CG (unknown origin) assessed as remaining activity at 1 uM by KINOMEscan analysis relative to control
MV4-11 [8] = assay: Induction of apoptosis in human MV4-11 cells assessed as increase in cleaved PARP level incubated for 24 hrs by Western blotting analysis; format: functional, cell-based; conditions: dose 0.04-5 µM
MV4-11 [9] = assay: Antitumor activity against human MV4-11 cells xenografted in BALB/c nude mouse assessed as increase in cleaved caspase-3 at 60 mg/kg, po administered once daily for 14 days by Western blotting analysis; format: functional, organism-based; conditions: time 14.0 day
MV4-11 [10] = assay: Antitumor activity against human MV4-11 cells xenografted in BALB/c nude mouse assessed as increase in cleaved PARP at 60 mg/kg, po administered once daily for 14 days by Western blotting analysis; format: functional, organism-based; conditions: time 14.0 day
Mus musculus [11] = assay: In vivo inhibition of PI3K in human MV4-11 cells xenografted in ip dosed BALB/c nude mouse assessed as reduction in AKT phosphorylation at Thr308 residue administered once daily for 14 days by Western blotting analysis; format: functional, organism-based; conditions: dose 10-20 mg/kg, time 14.0 day
[12] = target: Phosphatidylinositol 4,5-bisphosphate 3-kinase catalytic subunit alpha isoform (Homo sapiens, UniProt P42336); assay: Inhibition of PIK3CA (unknown origin) assessed as remaining activity at 1 uM by KINOMEscan analysis relative to control
[13] = target: Phosphatidylinositol 4-phosphate 3-kinase C2 domain-containing subunit beta (Homo sapiens) (UniProt O00750); assay: Inhibition of PIK3C2B (unknown origin) assessed as remaining activity at 1 uM by KINOMEscan analysis relative to control
MV4-11 [14] = assay: Induction of apoptosis in human MV4-11 cells assessed as increase in cleaved caspase-3 level incubated for 24 hrs by Western blotting analysis; format: functional, cell-based; conditions: dose 0.04-5 µM
MV4-11 [15] = assay: Antitumor activity against human MV4-11 cells xenografted in BALB/c nude mouse assessed as increase in cleaved PARP at 10 to 20 mg/kg, ip administered once daily for 14 days by Western blotting analysis; format: functional, organism-based; conditions: dose 10-20 mg/kg, time 14.0 day
Mus musculus [16] = assay: In vivo inhibition of HDAC in human MV4-11 cells xenografted in po dosed BALB/c nude mouse assessed as increase in p53 acetylation administered once daily for 14 days by Western blotting analysis; format: functional, organism-based; conditions: dose 60.0 mg/kg, time 14.0 day
Mus musculus [17] = assay: In vivo inhibition of PI3K in human MV4-11 cells xenografted in po dosed BALB/c nude mouse assessed as reduction in AKT phosphorylation at Ser473 residue administered once daily for 14 days by Western blotting analysis; format: functional, organism-based; conditions: dose 60.0 mg/kg, time 14.0 day
MV4-11 [18] = assay: Induction of apoptosis in human MV4-11 cells incubated for 24 hrs by Annexin V-FITC/propidium iodide staining based flow cytometry analysis; format: functional, cell-based; conditions: dose 0.04-5 µM
[19] = target: T1, Histone deacetylase (Homo sapiens); assay: Inhibition of HDAC in human MV4-11 cells assessed as increase in H3 acetylation level incubated for 24 hrs by Western blotting analysis; format: cell-based; conditions: dose 0.04-5 µM
Mus musculus [20] = assay: In vivo inhibition of PI3K in human MV4-11 cells xenografted in po dosed BALB/c nude mouse assessed as reduction in AKT phosphorylation at Thr308 residue administered once daily for 14 days by Western blotting analysis; format: functional, organism-based; conditions: dose 60.0 mg/kg, time 14.0 day
Mus musculus [21] = assay: In vivo inhibition of PI3K in human MV4-11 cells xenografted in ip dosed BALB/c nude mouse assessed as reduction in AKT phosphorylation at Ser473 residue administered once daily for 14 days by Western blotting analysis; format: functional, organism-based; conditions: dose 10-20 mg/kg, time 14.0 day
Mus musculus [22] = assay: In vivo inhibition of HDAC in human MV4-11 cells xenografted in po dosed BALB/c nude mouse assessed as increase in H3 acetylation administered once daily for 14 days by Western blotting analysis; format: functional, organism-based; conditions: dose 60.0 mg/kg, time 14.0 day
Mus musculus [23] = assay: In vivo inhibition of HDAC in human MV4-11 cells xenografted in ip dosed BALB/c nude mouse assessed as increase in p53 acetylation administered once daily for 14 days by Western blotting analysis; format: functional, organism-based; conditions: dose 10-20 mg/kg, time 14.0 day
Mus musculus [24] = assay: In vivo inhibition of HDAC in human MV4-11 cells xenografted in ip dosed BALB/c nude mouse assessed as increase in H3 acetylation administered once daily for 14 days by Western blotting analysis; format: functional, organism-based; conditions: dose 10-20 mg/kg, time 14.0 day
MV4-11 [25] = assay: Induction of cell cycle arrest in human MV4-11 cells assessed as accumulation of cell at G0/G1 phase at 5 uM incubated for 24 hrs by FxCycle propidium iodide/RNase staining based flow cytometry analysis; format: functional

Compound: O=C(CCCCCCC(=O)Nc1ccccc1)NO [VORINOSTAT]
- Activity (MV4-11 [1]): Active

Compound: COc1ncc(-c2cc(OCCCc3ccc(C(=O)Nc4ccccc4N)cc3)c3ncnc(C)c3c2)cc1NS(=O)(=O)c1ccc(F)cc1F
- Activity (MV4-11 [2]): Active
- inhibition [3]: Dose-Dependent Effect
- inhibition (MV4-11 [4]): Dose-Dependent Effect
- inhibition (MV4-11 [5]): Dose-Dependent Effect
- Activity (MV4-11 [6]): Dose-Dependent Effect
- Activity [7]: 0.05%
- Activity (MV4-11 [8]): Dose-Dependent Effect
- Activity (MV4-11 [9]): Active
- Activity (MV4-11 [10]): Active
- Activity (Mus musculus [11]): Dose-Dependent Effect
- Activity [12]: 0.2%
- Activity [13]: 0.2%
- Activity (MV4-11 [14]): Dose-Dependent Effect
- Activity (MV4-11 [15]): Active
- Activity (Mus musculus [16]): Dose-Dependent Effect
- Activity (Mus musculus [17]): Dose-Dependent Effect
- Activity (MV4-11 [18]): Dose-Dependent Effect
- inhibition [19]: Dose-Dependent Effect
- Activity (Mus musculus [20]): Dose-Dependent Effect
- Activity (Mus musculus [21]): Dose-Dependent Effect
- Activity (Mus musculus [22]): Dose-Dependent Effect
- Activity (Mus musculus [23]): Dose-Dependent Effect
- Activity (Mus musculus [24]): Dose-Dependent Effect

Compound: COc1ncc(-c2cc(OCCCCCCC(=O)Nc3ccccc3N)c3ncnc(C)c3c2)cc1NS(=O)(=O)c1ccc(F)cc1F
- Activity (MV4-11 [2]): Active
- inhibition [3]: Dose-Dependent Effect
- inhibition (MV4-11 [4]): Dose-Dependent Effect
- inhibition (MV4-11 [5]): Dose-Dependent Effect
- Activity (MV4-11 [6]): Dose-Dependent Effect
- Activity [7]: 0%
- Activity (MV4-11 [8]): Dose-Dependent Effect
- Activity (MV4-11 [9]): Active
- Activity (MV4-11 [10]): Active
- Activity (Mus musculus [11]): Dose-Dependent Effect
- Activity [12]: 0.25%
- Activity [13]: 0.35%
- Activity (MV4-11 [14]): Dose-Dependent Effect
- Activity (MV4-11 [15]): Active
- Activity (Mus musculus [16]): Dose-Dependent Effect
- Activity (Mus musculus [17]): Dose-Dependent Effect
- Activity (MV4-11 [18]): Dose-Dependent Effect
- inhibition [19]: Dose-Dependent Effect
- Activity (Mus musculus [20]): Dose-Dependent Effect
- Activity (Mus musculus [21]): Dose-Dependent Effect
- Activity (Mus musculus [22]): Dose-Dependent Effect
- Activity (Mus musculus [23]): Dose-Dependent Effect
- Activity (Mus musculus [24]): Dose-Dependent Effect

Compound: Cc1nc(NC(=O)N2CCC[C@H]2C(N)=O)sc1-c1ccnc(C(C)(C)C(F)(F)F)c1 [ALPELISIB]
- Activity (MV4-11 [25]): Active
